Source: patent publication US20190093079A1, “METHODS FOR CONTROLLED PROLIFERATION OF STEM CELLS / GENERATING INNER EAR HAIR CELLS USING GSK-3-ALPHA INHIBITORS” (Frequency Therapeutics, Inc., priority 2016, published 2019)

Amino acid sequences for entries named in this document (tags omitted).
UniProt P49840, whole entry: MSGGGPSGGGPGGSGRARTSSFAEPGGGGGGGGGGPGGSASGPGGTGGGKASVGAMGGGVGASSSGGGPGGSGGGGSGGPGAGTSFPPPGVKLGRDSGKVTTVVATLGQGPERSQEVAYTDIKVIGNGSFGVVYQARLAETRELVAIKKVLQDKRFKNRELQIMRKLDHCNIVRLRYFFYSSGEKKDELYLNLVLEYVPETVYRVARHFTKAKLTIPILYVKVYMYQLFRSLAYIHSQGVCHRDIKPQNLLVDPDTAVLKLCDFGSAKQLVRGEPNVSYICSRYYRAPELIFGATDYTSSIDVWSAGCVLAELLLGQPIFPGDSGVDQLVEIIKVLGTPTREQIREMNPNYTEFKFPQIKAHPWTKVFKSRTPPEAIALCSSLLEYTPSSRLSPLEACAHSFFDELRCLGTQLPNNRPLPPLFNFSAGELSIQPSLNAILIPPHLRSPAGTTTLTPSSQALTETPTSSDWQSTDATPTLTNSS
UniProt P49841, whole entry: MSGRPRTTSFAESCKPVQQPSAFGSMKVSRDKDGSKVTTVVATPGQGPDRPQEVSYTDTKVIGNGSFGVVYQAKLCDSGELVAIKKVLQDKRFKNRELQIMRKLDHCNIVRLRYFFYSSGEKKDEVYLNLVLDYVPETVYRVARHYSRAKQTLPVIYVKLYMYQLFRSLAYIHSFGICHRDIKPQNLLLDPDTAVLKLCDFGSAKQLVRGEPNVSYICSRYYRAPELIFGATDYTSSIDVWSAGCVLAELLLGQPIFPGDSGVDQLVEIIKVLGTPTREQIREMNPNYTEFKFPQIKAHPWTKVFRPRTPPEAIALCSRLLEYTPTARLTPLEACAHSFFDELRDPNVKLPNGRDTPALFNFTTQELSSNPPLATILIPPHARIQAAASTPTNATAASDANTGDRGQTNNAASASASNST

Tests used:
[1] = biological target: T1, GSK3-alpha (Homo sapiens, UniProt P49840); assay: GSK3-alpha potency (IC50), kinase assay; assay type: biochemical; conditions: GSK3-alpha/GSK3-beta selectivity ratio = IC50 GSK3-beta divided by IC50 GSK3-alpha
[2] = biological target: T1, GSK3-alpha; conditions: read-out: Potency in nM GSK3-alpha, literature values; cited from earlier work
[3] = biological target: GSK3-beta (Homo sapiens, UniProt P49841); conditions: read-out: Potency in nM GSK3-beta, literature values; cited from earlier work

## CC1(C)CC(=O)C2=C(C1)Nc1n[nH]c(C(F)(F)F)c1[C@]2(C)c1ccccc1
[1]
  Ratio of Alpha to Beta: 10
[2]
  IC50: 0.4 nM
[3]
  IC50: 4 nM
